Literature values, collected in publication PMC8713164, “Development of a 1,2,4-Triazole-Based Lead Tankyrase Inhibitor: Part II” (Journal of Medicinal Chemistry, 2021).

System: RKO cells
Conditions: cited from earlier work

In the case of CCOc1ccc(-c2nnc([C@H]3C[C@H](NC(=O)c4ccccn4)C3)n2-c2ccccc2F)nc1 [Compound 1], the GI50 is given as over 10 µM.
